Data: article PMC11906766 (Scientific Reports, 2025)

Chains of the proteins cited; added tags and fusions are not shown.
UniProt P27338, whole entry: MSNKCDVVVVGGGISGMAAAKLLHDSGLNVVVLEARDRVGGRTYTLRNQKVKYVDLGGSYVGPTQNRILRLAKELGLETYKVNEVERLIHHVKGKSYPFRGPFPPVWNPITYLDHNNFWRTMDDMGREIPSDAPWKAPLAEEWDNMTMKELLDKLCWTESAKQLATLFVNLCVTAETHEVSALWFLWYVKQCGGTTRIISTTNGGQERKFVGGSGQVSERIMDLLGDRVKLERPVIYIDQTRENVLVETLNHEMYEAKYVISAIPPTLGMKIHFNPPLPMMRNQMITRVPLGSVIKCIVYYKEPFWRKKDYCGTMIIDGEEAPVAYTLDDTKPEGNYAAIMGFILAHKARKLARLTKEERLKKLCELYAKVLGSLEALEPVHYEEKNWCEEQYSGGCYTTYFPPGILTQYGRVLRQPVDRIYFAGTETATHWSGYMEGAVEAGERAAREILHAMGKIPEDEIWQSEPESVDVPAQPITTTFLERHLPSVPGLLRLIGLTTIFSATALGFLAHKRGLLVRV

What was measured:
[1] = biological target: T1, MAO-B (Homo sapiens, UniProt P27338); assay: hMAO-B inhibition assay; format: biochemical
[2] = biological target: T1, MAO-B

O=C(C=Cc1ccccc1)c1ccccc1 [Compound 1, 1,3-diphenyl-2-propen-1-one, reference compound]
Selectivity Index (SI) [1]: > 3

C[C@H](NCc1ccc(OCc2cccc(F)c2)cc1)C(N)=O [Safinamide, safinamide]
residual MAO-B activity after dialysis [2]: 90.6
residual MAO-B activity, undialysis group [2]: 47.1
